{"sequences": {"note": "Sequences of proteins named here, by UniProt entry; tags and fusion partners are left off.", "UniProt Q96SW2, whole entry": "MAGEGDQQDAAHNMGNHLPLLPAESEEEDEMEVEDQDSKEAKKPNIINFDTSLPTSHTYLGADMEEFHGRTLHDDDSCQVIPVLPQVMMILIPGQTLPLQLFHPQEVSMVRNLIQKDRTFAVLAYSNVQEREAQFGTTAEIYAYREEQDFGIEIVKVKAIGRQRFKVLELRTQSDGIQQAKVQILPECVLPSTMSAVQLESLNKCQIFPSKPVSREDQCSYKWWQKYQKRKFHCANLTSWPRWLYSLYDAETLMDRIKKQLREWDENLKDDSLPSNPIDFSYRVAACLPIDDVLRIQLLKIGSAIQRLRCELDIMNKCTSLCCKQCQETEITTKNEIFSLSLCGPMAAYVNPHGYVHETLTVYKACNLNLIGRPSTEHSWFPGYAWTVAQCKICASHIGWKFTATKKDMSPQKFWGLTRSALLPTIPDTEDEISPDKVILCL", "UniProt Q16531, whole entry partner": "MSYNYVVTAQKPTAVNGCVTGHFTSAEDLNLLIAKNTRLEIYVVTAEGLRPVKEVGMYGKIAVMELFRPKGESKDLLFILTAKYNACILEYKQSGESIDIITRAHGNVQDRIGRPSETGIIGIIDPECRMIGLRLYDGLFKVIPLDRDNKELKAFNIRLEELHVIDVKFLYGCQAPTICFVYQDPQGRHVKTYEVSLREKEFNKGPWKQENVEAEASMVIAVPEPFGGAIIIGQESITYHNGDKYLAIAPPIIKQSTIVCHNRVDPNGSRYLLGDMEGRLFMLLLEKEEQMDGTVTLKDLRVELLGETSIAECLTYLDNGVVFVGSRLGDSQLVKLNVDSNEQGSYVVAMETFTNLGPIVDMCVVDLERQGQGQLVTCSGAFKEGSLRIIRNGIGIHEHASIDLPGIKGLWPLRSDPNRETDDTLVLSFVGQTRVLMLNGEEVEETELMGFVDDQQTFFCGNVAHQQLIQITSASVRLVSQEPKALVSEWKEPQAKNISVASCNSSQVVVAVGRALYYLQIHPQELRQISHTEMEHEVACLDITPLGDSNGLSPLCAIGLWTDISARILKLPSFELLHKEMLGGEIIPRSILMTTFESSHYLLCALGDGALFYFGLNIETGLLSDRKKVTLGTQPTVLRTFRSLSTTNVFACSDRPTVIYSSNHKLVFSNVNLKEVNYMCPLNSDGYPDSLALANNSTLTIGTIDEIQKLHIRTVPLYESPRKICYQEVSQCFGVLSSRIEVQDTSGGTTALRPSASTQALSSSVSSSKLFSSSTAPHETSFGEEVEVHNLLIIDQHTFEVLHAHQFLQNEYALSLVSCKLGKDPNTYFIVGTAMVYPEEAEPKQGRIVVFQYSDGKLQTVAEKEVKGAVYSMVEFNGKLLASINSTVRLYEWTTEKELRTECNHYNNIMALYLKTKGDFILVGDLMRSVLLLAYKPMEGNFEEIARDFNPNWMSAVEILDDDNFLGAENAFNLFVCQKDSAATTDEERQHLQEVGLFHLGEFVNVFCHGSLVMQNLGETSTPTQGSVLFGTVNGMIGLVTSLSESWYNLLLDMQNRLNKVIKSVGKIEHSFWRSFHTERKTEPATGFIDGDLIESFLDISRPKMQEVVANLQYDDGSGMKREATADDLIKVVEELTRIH"}, "source": "patent US20240343706A1", "target": "CRBN-DDB1 protein complex (Homo sapiens, UniProt Q96SW2)", "experiment": "Fluorescence polarization (FP) assay, displacement of Cy5-labelled thalidomide", "details": "read-out: CRBN binding Ki, 25 nM CRBN-DDB1, 5 nM Cy5-labelled thalidomide"}
{"smiles": "O=C1CCC(NC(=O)c2cc3cscc3s2)C(=O)N1", "note": "(stereo not shown)", "values": [{"measurement": "Ki", "value": "1 to 10", "unit": "µM"}]}
